Results: patent US12472261B2, “Conjugated inhibitors of DNA damage response” (ProLynx LLC, priority 2019, dated 2025)

Conditions: buffer, 37° C., after one week

MeO-PEG20kDa-DBCO triazole of 6-azidohexyl N-(2-methoxyethyl)-N-(methylene-olaparib) carbamate
free olaparib observed: no free olaparib was observed
